Test results reported in PubChem BioAssay AID504897 (Southern Research Specialized Biocontainment Screening …, 2011).

Tested on: Mycobacterium tuberculosis H37Rv growth inhibition, 7H9 medium
Experiment: M. tuberculosis growth inhibition, dose response, H37Rv, 7H9 media, purified and synthesized compounds, set 6 (AID 504897)

With `CO[C@H]1/C=C/O[C@@]2(C)Oc3c(C)c(O)c4c(O)c(c(C=NN5CCN(C)CC5)c(O)c4c3C2=O)NC(=O)/C(C)=C\C=C\[C@H](C)[C@H](O)[C@@H](C)[C@@H](O)[C@@H](C)[C@H](OC(C)=O)[C@@H]1C` the IC90 was 0.015 µM and the IC50 (measured here: IC50 of Mtb growth inhibition) was < 0.006 µM.
